Experimental findings from patent publication US11274090B2, “P300/CBP HAT inhibitors” (Constellation Pharmaceuticals, Inc., priority 2018, dated 2022) are described below.

By UniProt entry, the sequences of proteins in these tests, tags left out. Residues count along the entry.
UniProt Q09472, 1287-1666 limits assumed: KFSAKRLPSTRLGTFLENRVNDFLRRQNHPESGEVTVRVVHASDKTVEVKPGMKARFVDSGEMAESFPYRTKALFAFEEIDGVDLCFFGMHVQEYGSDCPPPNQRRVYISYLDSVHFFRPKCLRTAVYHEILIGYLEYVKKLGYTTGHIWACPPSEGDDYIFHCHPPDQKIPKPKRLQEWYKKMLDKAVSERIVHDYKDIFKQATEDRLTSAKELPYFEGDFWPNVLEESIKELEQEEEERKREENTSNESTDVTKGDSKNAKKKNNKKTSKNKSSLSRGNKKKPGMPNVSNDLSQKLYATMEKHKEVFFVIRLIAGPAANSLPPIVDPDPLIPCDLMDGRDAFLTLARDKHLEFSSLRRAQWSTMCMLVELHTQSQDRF

pIC50: −log10 of the molar value.

For the assay, the target named is p300 HAT domain (residues 1287-1666) (Homo sapiens (Human), UniProt Q09472). Description: p300 HAT SPA assay (scintillation proximity assay, acetylation of biotinylated H3(1-21) peptide). The assay is classed as biochemical. As to conditions: read-out: P300 HAT SPA IC50, average of at least 2 replicate titrations. (In general: Scintillation proximity formats need no separation of bound from free tracer.)

`CC(=O)N1CCC(c2ccc(NC(=O)C(NCCc3ccc(Cl)cc3)c3ccccc3)cc2)CC1` (single isomer, unassigned) [21 Isomer 1]: the pIC50 is 5.46.

For the compound `CC(=O)N1CCC(c2ccc(NC(=O)C(NCCc3ccc(Cl)cc3)c3ccccc3)cc2)CC1` (single isomer, unassigned) [21 Isomer 2], the pIC50 was less than 5.30.
